Test system: human cardiac progenitors
Experiment: Induction of AVN phenotype in hPSC-derived cardiac progenitors, flow cytometry for NKX2-5+TBX3+ myocytes at day 20
Assay type: cell-based
Procedure: First, hPSCs were incubated in media containing BMP and Rho-associated protein kinase (ROCK) inhibitor on an orbital shaker to generate embryoid bodies (differentiation protocol day: 0). Then, cardiogenic mesoderm was induced using media containing 1-100 ng/mL BMP4, 1-100 ng/ml Activin A, 1-20 ng/mL bFGF, and 1-10 μM CHIR-99021 (differentiation protocol day: 1). […] The cardiogenic mesoderm can be analyzed at day 3/4 of differentiation for the expression of PDGFRa, RALDH2 and CD235a, and should be PDGFRa+RALDH2− and CD235a^low (max 50% positive).
Next, cardiac progenitors were induced using media that contained 0.5-10 μM IWP2 and 1-20 ng/mL VEGF (differentiation protocol day: 3). At this stage, the cardiac progenitors may be a mixed population of early stage (NKX2-5^−) and late stage (NKX2-5^+) cardiac progenitors which may be contractile or not. The cardiac progenitors were induced into an AVN phenotype between days 8-18, which yielded relatively more NKX2^30 -5^+TBX3^+ myocytes when carried out between days 8-11 (FIG. 3A,B), using media that contained 3-15 μM CHIR-99021 and optionally contained 5 ng/mL VEGF (FIG. 4A,B). Relatively more NKX2-5^+TBX3^+ myocytes were induced when CHIR-99021 was used at 12-15 μM. Alternatively, the AVN phenotype was induced between days 5-15 (FIG. 5A) using media that contained 50-400 ng/mL BMP2 and optionally contained 5 ng/mL VEGF (FIG. 5B). Relatively more NKX2-5^+TBX3^+ myocytes were induced when BMP2 was applied between days 5-8 and when used at 200-400 ng/mL. Culture was continued in media that contained 5 ng/mL VEGF until day 12 of the differentiation protocol. The culture was maintained until day 20 of the differentiation protocol before analysis. Treatment with 15 μM CHIR-99021 from day 8-11 results in 72=10% NKX2-5^+ TBX3^+myocytes of total cells present in culture at day 20. Treatment with 400 ng/ml BMP2 from day 5-8 results in 67±10% NKX2-5^30 TBX3 myocytes of total cells present in culture at day 20. FIGS. 3B, 4B, 5A and 5B present the percentage of NKX2-5^+ TBX3^+ myocytes of total cells present in the culture.
A NKX2-5:GFP+TBX3:tdTomato+ transgenic double reporter hPSC line was cultured using the protocol described in Example 1. AVNLPCs were identified and isolated using Fluorescence-activated cell sorting (FACS), based on their expression of NKX2-5 and TBX3 and the associated expression of the fluorescent reporter (FIG. 2).

B1: BMP2: bone morphogenetic protein (BMP) component, activator of BMP signaling (protein, UniProt P12643 283-396, looked up)
Bone morphogenetic protein 2: QAKHKQRKRLKSSCKRHPLYVDFSDVGWNDWIVAPPGYHAFYCHGECPFPLADHLNSTNHAIVQTLVNSVNSKIPKACCVPTELSAISMLYLDENEKVVLKNYQDMVVEGCGCR
B1 was tested, and the “Percentage of AVNLPCs by timepoint of treatment” value (50 ng/ml BMP2 from day 5-8 versus other timepoints, n=5 (FIG. 5A)) was “highest percentage”, the “NKX2-5+TBX3+ myocytes of total cells present in culture at day 20” value (400 ng/ml BMP2 from day 5-8) was 67±10% and the “BMP2 concentration at which relatively more NKX2-5+TBX3+ myocytes were induced” value (50-400 ng/mL used, days 5-8) was 200 to 400 ng/mL. For the same molecule, the “BMP2 concentration giving highest percentage of AVNLPCs” value (treatment day 5-8, n=5 (FIG. 5B)) was 200 to 400 ng/mL.

— patent publication US20260022340A1, “ATRIOVENTRICULAR NODE-LIKE PACEMAKER CELLS” (UNIVERSITY HEALTH NETWORK, priority 2022, published 2026)
